Data on one substance can be found in patent US10378058B2, “Diagnostic and therapeutic methods and compositions involving PTEN and breast cancer” (Board of Regents of The University of Texas System, priority 2003, dated 2019).

Entries after “also recorded” stand apart in the source; their conditions may differ.

One series has as its system Src tyrosine kinase. The experiment in a line: Src kinase assay and Src-Y416 phosphorylation after trastuzumab. As to conditions: trastuzumab-treated vs untreated cells. Type of series: cell-based. As for the experimental part: Src kinase assay. Equal amounts of cell lysates were immunoprecipitated with anti-Src antibody (0P07, Oncogene Tesearch Products, Boston, Mass.). The precipitates were washed and incubated with 250 μg/ml enolase, 2 μCi of [γ^32P]ATP, and 3 μl of 100 mM ATP in 40 μl of kinase buffer. After 30 min at 37° C., the samples were boiled in 15 μl of 6×SDS sample buffer for 5 min and then subjected to SDS-PAGE. The ^32P-labeled enolase was visualized by autoradiography.
(§1) Preparation of Cell Lysates, Immunoprecipitation, and Western Blot Analysis. Cells at 70%-80% confluence were treated with each reagent indicated in the individual experiments. For PTEN phosphotyrosine immunoblots, ErbB2 IP, and Src IP, cells were treated with 30 mM pervanadate for 10 min as described (Lu et al., 2003). Unless noted, cells were washed with PBS and lysed in IP buffer with protease inhibitor cocktail (Sigma Chemical Co., St. Louis, Mo.). Immunoprecipitation and Western blot analysis were performed (Yu et al., 1998).

Series [1] has as its system PTEN. Description: PTEN membrane translocation in 435.eB and eB/SrcCA cells. The series is classed as cell-based. As for the experimental part: (§2) Separation of membrane-bound and cytosolic proteins. Cells were lysed in saponin buffer (0.01% saponin, 10 mM Tris-HCL at pH 7.4, 140 mM NaCl, 5 mM EDTA, 2 mM EGTA, 0.2 mM sodium vanadate, 50 mM NaF, 25 mM β-glycerophosphate) containing protease inhibitor cocktail (Sigma). Proteins were extracted for 20 min on ice, and samples centrifuged at 14,000 g for 30 min at 4° C. The saponin soluble pool (cytosolic pool) was collected (Palka and Green, 1997). The remaining pellet was rinsed with saponin buffer once, extracted in IP buffer, and centrifuged to remove insoluble materials. The supernatant was collected (membrane-bound pool).

For series [2], the system named is PTEN. Description: PTEN phosphatase assay on PTEN immunoprecipitated from treated cells. Type of series: cell-based, human. As to conditions: SKBr3 cells. As for the experimental part: PTEN phosphatase assay. PTEN phosphatase activity was measured as described with minor modifications (Georgescu et al., 1999). Each assay was performed in 50 μl buffer containing 100 mM Tris-HCl (pH 8.0), 10 mM DTT, and 100 μM water-soluble diC8-PIP3 (Echelon, Salt Lake City, Utah). Reactions contained PTEN immunoprecipitated from cell lysates on protein G-agarose beads. […] After immunoprecipitation, the beads were washed once in lysis buffer; five times in low-stringency buffer containing 20 mM Hepes (pH 7.7), 50 mM NaCl, 0.1 mM EDTA, and 2.5 mM MgCl2; and once in phosphatase assay buffer lacking PIP3. Reactions were incubated for 40 min at 37° C. and transferred to a 96-well plate. Release of phosphate from substrate was measured using Biomol Green Reagent (Biomol Research Laboratories, Inc., Plymouth Meeting, Pa.).

The test system of another series is Akt. The experiment in a line: Akt phosphorylation by immunoblotting in trastuzumab-treated cells. Type of series: cell-based, human. Conditions: for Akt dephosphorylation by trastuzumab: trastuzumab 2 μg/ml. As for the experimental part: as §1
(A western blot detects proteins with antibodies after separation by electrophoresis.)

The test system of a further series is BT474 tumor xenografts. The experiment in a line: BT474 mammary fat pad xenograft tumor growth in nude mice. Type of series: in vivo. Conditions: trastuzumab 10 mg/kg twice per week. As for the experimental part:
Animal experiment. Female athymic nude mice (Harlan Sprague Dawley, Indianapolis, Ind.) were implanted with 0.72-mg 60-day-release 17β-estradiol pellets (Innovative Research, Sarasota, Fla.) and irradiated at 3.5 Gy prior to inoculation. BT474 cells (8×10^6) in 200 μl of PBS and Matrigel (BD Biosciences, Bedford, Mass.) mixture (1:1 ratio) were injected subcutaneously into a mouse mammary fat pad (mfp). When the mfp tumor volume reached >150 mm^3, the tumor was treated with PTEN antisense or control mismatched oligonucleotides (30 μg/week) in saline. […] Tumor diameters were serially measured with calipers and tumor volumes calculated: volume=width^2×length/2. Each treatment group contained 8-12 mice. Unpaired Student's t-test was used to assess statistical significance.

Series [3] deals with PTEN. Description: PTEN tyrosine phosphorylation (PTEN IP, phosphotyrosine immunoblot). Type of series: cell-based, human. Conditions: BT474 cells, trastuzumab 2 μg/ml. As for the experimental part:
as §1

Series [4] deals with BT474 cells. Description: BrdU incorporation assay in BT474 cells. The series is classed as cell-based, human. Conditions: trastuzumab 2 mg/ml, 48 h. The source says: BrdU incorporation assay. S-phase cells were detected using 5-bromo-2′-deoxyuridine (BrdUrd) Labeling and Detection Kit I (Roche Molecular Biochemicals, Indianapolis, Ind.).
On the technique in general: Dividing cells build labelled thymidine or BrdU into new DNA.

Another series deals with SKBr3 cells. Description: Cell proliferation of SKBr3 cells (MTS assay). The series is classed as cell-based, human. Conditions: PTEN AS-treated vs MIS control-transfected SKBr3 cells; 2 μg/ml, 3 and 5 days. As for the experimental part:
(§3) Cell viability assay. Cells were seeded at 1-5×10^3 cells/well in 96-well plates after oligonucleotide transfection. Viable cells were determined by CellTiter 96 AQueous Non-Radioactive Cell Proliferation Assay (Promega, Madison, Wis.).
For orientation: Formazan colour is commonly taken as a measure of viable cells.

For series [5], the system named is ErbB2-overexpressing metastatic breast cancer. As to conditions: cited from earlier work.
Series [6] concerns ErbB2-overexpressing primary breast carcinomas. Description: Clinical response of metastatic breast cancer patients by PTEN / ErbB2 status. Type of series: in vivo, human. Conditions: PTEN IRS ranges 0-3, 4-7, 8-12; Cochran-Armitage test, P<0.01. As for the experimental part:
Patient samples. […] The 47 patients were treated between 1998-2001 and the 37 patients were treated between 1990 and 1991 under IRB-approved clinical trials at The University of Texas M.D. Anderson Cancer Center. Association between clinical response to therapy and PTEN status was tested using chi-square and Fisher's tests.
PTEN Immunohistochemistry. Slides of formalin-fixed, paraffin-embedded tissue sections (4 μm) were incubated with primary antibody (1:500) against PTEN (Podsypanina et al. 2001) (Ab-2, Lab Vision Corp.). Immunodetection was performed with LSAB2 kit (DAKO, Carpinteria, Calif.), color development with 3-3′-diaminobenzidine, and counterstaining with hematoxylin. PTEN expression level was scored semiquantitatively based on staining intensity and distribution using the immunoreactive score (IRS) as described (Chui et al., 1996; Fredrichs et al., 1993) and as following: IRS=SI (staining intensity)×PP (percentage of positive cells). SI was determined as 0=negative; 1=weak; 2=moderate; and 3=strong. PP was defined as 0, <1%; 1, 1%-10%; 2, 11%-50%; 3, 51%-80%; and 4, >80% positive cells. […]
ErbB2 status. ErbB2 gene amplification in patients' samples was determined by fluorescence in situ hybridization (FISH) using PathVysion FISH assay (Vysis, Inc., Downers Grove, Ill.). ErbB2 protein overexpression was determined by IHC as previously described (Jacobs et al., 1999).

Series [7] has as its system BT474 cells. The experiment in a line: Cell viability assay of BT474 cells. The series is classed as cell-based, human. As to conditions: trastuzumab 2 μg/ml, 3 days. As for the experimental part:
as §3

Series [8] deals with PTEN. Description: Separation of membrane-bound and cytosolic proteins, PTEN Western blot. The series is classed as cell-based, human. Conditions: BT474 cells, trastuzumab 20 min. As for the experimental part:
as §2

With trastuzumab, in the series with Src tyrosine kinase, the Src kinase activity result was “rapidly inhibited Src kinase activity”. Also, in the series with Src tyrosine kinase, the “Src phosphorylation on Y416” value was “rapidly reduced Src phosphorylation on Y416”. Moreover, the figures for the PTEN membrane translocation entry in the series on PTEN [1] (435.eB cells) and in the series with PTEN [1] (eB/SrcCA cells expressing constitutively activated Src) were “effectively increased the PTEN membrane translocation” and “less effective”, respectively. In addition, the PTEN phosphatase activity result in the series on PTEN [2] (20 min trastuzumab treatment, vs untreated cells) was “dramatically increased”; in the series with PTEN [2] (60 min after treatment), “continued to increase”. Moreover, the PTEN phosphatase activities result in the series on PTEN [2] (trastuzumab 2 μg/ml, 20 or 60 min) is recorded as “Increased PTEN phosphatase activities”. The “level of phosphorylated and activated Akt” value with Akt (1 h trastuzumab treatment, BT474 and SKBr3 cells, Akt protein level unchanged) is “quickly reduced the level of phosphorylated and activated Akt; also recorded: Rapid Akt dephosphorylation”. For the same substance, the “Akt dephosphorylation by trastuzumab” value is “rapid Akt dephosphorylation” with Akt (MIS control-treated SKBr3 cells) and “attenuated” in the series on Akt (PTEN AS-treated SKBr3 cells). Besides, the tumor growth inhibition result in the series with BT474 tumor xenografts (MIS control-treated tumors expressing normal PTEN) is listed as “only inhibited MIS control-treated tumors expressing normal PTEN”; with BT474 tumor xenografts (PTEN AS-treated tumors with reduced PTEN), “more resistant to trastuzumab than PTEN normal BT474 xenografts”; in the series on BT474 tumor xenografts (PTEN AS-treated tumors with reduced PTEN, listed as Trastuzumab), “but not PTEN AS-treated tumors with reduced PTEN”. In the series on PTEN [3], the PTEN tyrosine phosphorylation entry is “rapidly reduced PTEN tyrosine phosphorylation; also recorded: Reduction of PTEN tyrosine phosphorylation”. Moreover, the values for the BrdU incorporation entry in the series on BT474 cells [4] (PTEN normal expressing (MIS) BT474 cells) and in the series on BT474 cells [4] (PTEN-deficient (PTEN AS) BT474 cells) were “reduces BrdU incorporation” and “but not of PTEN-deficient (PTEN AS) BT474 cells”, respectively. Moreover, in the series with SKBr3 cells, the “Inhibition of cell proliferation by trastuzumab” value is “significantly less effective in PTEN AS-treated cells”. The “patients responding to trastuzumab as a single agent” value in series [5] (ErbB2-overexpressing metastatic breast cancer) was “less than 35%”. Also, in series [5] (trastuzumab treatment), the “patients suffering from severe side effects (e.g., cardiac dysfunction)” value is roughly 5%. Moreover, the “probability of response / response rate vs PTEN IRS” value in series [6] is on record as “decreases as PTEN expression (IRS score) decreases”. Besides, in the series on BT474 cells [7], the “trastuzumab-mediated growth inhibition, MIS-treated vs PTEN AS-treated cells” value is on record as “more sensitive to trastuzumab-mediated growth inhibition than the PTEN AS-treated cells”. The figures for the “PTEN protein in the membrane-bound pool” value in the series on PTEN [8] and in the series on PTEN [8] (listed as Trastuzumab) were “noticeably enriched” and “increased membrane bound PTEN”, respectively.
